Data reported in patent US8716295B2, “Fluoroquinolone derivatives or sulfonamide moiety-containing compounds as inhibitors of tyrosyl-dnaphosphodiesterase (TDP1)” (priority 2010, dated 2014).

Protein sequences, listed by entry. Tags and fused reporters are not part of them.
UniProt Q9NUW8, whole entry: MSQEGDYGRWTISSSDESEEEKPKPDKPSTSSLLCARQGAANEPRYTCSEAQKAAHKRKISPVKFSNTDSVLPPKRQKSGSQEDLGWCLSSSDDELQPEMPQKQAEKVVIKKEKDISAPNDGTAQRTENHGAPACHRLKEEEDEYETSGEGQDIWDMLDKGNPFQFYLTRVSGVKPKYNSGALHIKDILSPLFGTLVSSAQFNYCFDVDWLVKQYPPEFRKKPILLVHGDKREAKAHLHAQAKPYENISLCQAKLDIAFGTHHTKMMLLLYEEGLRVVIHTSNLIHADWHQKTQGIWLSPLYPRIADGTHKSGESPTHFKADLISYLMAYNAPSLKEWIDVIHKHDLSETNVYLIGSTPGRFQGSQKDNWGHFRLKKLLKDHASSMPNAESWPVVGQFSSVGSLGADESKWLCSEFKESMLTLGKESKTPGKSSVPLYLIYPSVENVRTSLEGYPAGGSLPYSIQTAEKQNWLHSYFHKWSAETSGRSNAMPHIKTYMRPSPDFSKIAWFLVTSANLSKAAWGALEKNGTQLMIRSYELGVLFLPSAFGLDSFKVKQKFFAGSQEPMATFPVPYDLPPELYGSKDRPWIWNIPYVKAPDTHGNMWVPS

Molecular target: recombinant Tdp1 (Homo sapiens, UniProt Q9NUW8)
Assay: Gel-based Tdp1 catalytic activity inhibition assay (5'-32P-labeled N14Y DNA substrate, denaturing PAGE)
Format: biochemical

For `COc1c(N2CCN(CNc3ccc(S(=O)(=O)Nc4nc(C)cc(C)n4)cc3)C(C)C2)c(F)cc2c(=O)c(C(=O)O)cn(C3CC3)c12` (stereo not shown), the “Tdp1 inhibitory activity (in words)” value was “nanomolar range”.
